{"source": "ChEMBL document CHEMBL1240295", "about": "“Specificity and mechanism of action of some commonly used protein kinase inhibitors” (Biochem J, 2000)", "biological_target": "T1, MAP kinase-activated protein kinase 5 (Homo sapiens) (UniProt Q8IW41)", "T1 sequence (whole entry)": "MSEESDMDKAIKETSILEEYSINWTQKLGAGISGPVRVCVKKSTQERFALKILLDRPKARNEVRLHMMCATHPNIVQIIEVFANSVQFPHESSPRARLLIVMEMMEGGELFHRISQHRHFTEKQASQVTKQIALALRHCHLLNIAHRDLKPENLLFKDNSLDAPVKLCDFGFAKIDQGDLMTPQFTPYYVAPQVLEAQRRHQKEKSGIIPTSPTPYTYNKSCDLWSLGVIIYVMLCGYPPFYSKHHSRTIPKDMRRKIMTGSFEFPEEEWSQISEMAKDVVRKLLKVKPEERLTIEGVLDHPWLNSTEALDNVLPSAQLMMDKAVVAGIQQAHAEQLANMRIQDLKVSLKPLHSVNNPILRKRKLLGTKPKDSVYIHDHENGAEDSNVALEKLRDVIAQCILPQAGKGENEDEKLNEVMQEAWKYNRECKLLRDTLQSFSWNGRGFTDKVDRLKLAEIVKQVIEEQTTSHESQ", "test": "Inhibition of His-tagged human PRAK expressed in Sf9 cells at 50 uM; values are per cent of control", "data": [{"smiles": "COc1cccc(-c2cc(=O)c3ccccc3o2)c1N", "values": [{"measurement": "residual activity", "result": 108, "unit": "%"}]}]}
